In PMC12845312, “Hydrazonylthiazole Derivatives as Dual EGFR and ALR2 Inhibitors: Design, Synthesis, and Comprehensive In Vitro and In Silico Evaluation for Potential Anticancer Activity” (Pharmaceuticals, 2025):

System: peripheral blood mononuclear cells (PBMCs)
Assay: MTT cytotoxicity assay in PBMCs (selectivity)
Format: cell-based
Conditions: IC50 for PBMC/IC50 for Jurkat cell line
Description: A549 (ATCC, Manassas, VA, USA) and MCF-7 (ATCC, VA, USA) cells were grown in Dulbecco’s Modified Eagle Medium (DMEM; Wako, Osaka, Japan) containing 10% fetal bovine serum (FBS; Equitech-Bio, Kerrville, TX, USA). Jurkat T-cells (ATCC, VA, USA) were maintained in RPMI-1640 medium (Wako Pure Chemical Industries, Osaka, Japan) supplemented with 10% FBS, while PBMCs (Precision Bioservices, Frederick, MD, USA) were expanded in the same medium supplemented with 10% human AB serum (Gemini, Woodland, CA, USA). Streptomycin was added to all culture media at a final concentration of 89 µg/mL (Meiji Seika Pharma, Tokyo, Japan). All cells were kept at 37 °C under humidified conditions with 5% CO2. For viability measurements, A549 and MCF-7 cells were seeded into 24-well plates, whereas PBMCs were dispensed into 96-well plates (Iwaki, Asahi Glass, Chiba, Japan) at initial densities of 4 × 10^4 cells/mL and 5 × 10^5 cells/mL, respectively. […] Concentrated stock solutions were prepared in dimethyl sulfoxide (DMSO; Wako Pure Chemical Industries) and diluted with culture medium to final assay concentrations ranging from […]. The DMSO content was kept constant at 1% in all wells. Cell viability was assessed using the MTT colorimetric assay (Dojindo, Kumamoto, Japan), following established procedures with minor protocol refinements previously reported in the literature.

CS(=O)(=O)CCNCc1ccc(-c2ccc3ncnc(Nc4ccc(OCc5cccc(F)c5)c(Cl)c4)c3c2)o1 [Lapatinib, lapatinib, reference compound] was tested, and the “SI (Selectivity Index)” value was 7.25.
